# In patent US20220183972A1, “NANOEMULSION HYDROPHOBIC […]” (VERTOSA INC., priority 2018, published 2022):
# Assay: Emulsion droplet size by DLS, Polyglyceryl-4 main surfactants
# Format: physicochemical
# Details: 1 g cannabinoid oil, 0.7 g olive oil, 2.5 g Polyglyceryl-4 surfactant, 1.5 g sunflower lecithin, 40 g water, 80% amplitude
substance,measurement,value
Polyglyceryl-4 Laurate,final emulsion droplet average size,488 nm
